In the library only some 2.5% were active in any assay of this set; here they are far more common.
ClpP mod: qHTS Assay for Activators of ClpP | Potency, µM (highest dose often 57.5 µM), for inactives: at the top dose activity change, negative = active | AID 651965, 2013 | purified B. subtilis ClpP, FRET peptide cleavage, 20 min | 1.9% of 340,000 active | ATP-dependent Clp protease proteolytic subunit (Bacillus subtilis (strain 168)), P80244; active means well fitted falling curve with a large enough effect; inconclusive means small, poorly fitted or top-dose-only effect; inactive means no such curve, though single readings can be large or run the other way; further: potency means the concentration at half of the fitted maximal effect; the source files actives as falling curves though it sought activators and does not explain the sign; nearly all actives have a fitted effect of over 65% in size
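FRET quenching reversal measured ClpP activation: 10 microg/mL B. subtilis ClpP at pH 8 with the FRET-FV decapeptide, read at 430 nm after 320 nm excitation. The 20-min minus 0-min signal was scaled between DMSO/no-enzyme wells and ADEP (5.8 microM final).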
TrxR1 substrate: rat thioredoxin reductase 1 substrate activity. 0.01% of 390,000 active. AID 588456. purified TrxR1 substrate turnover, NADPH consumption readout. Potency, µM (top dose mostly 114 µM), for inactives: at the top dose activity change, negative = substrate turnover; further: potency means the concentration at half of the fitted maximal effect; on the % scale 0 is the no-effect control and ±100 the full control effect; nearly all actives have a fitted effect of over 50% in size
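Rat TrxR1, dispensed at 90 nM, was prereduced with 400 uM NADPH (final) for 5 min at ~22 deg C, then incubated with compound 15 min before 400 uM selenite. A first-read NADPH fluorescence drop versus no-compound background flagged substrates.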
miR-21 reporter: miR-21 reporter, rising signal | AID 2288 | HeLa miR-21 FLuc reporter, luciferase, 48 h | 340,000 tested, under 10 active | Potency, µM (doses to about 38.3 µM), for inactives: at the top dose reporter change, positive = more light; active = well fitted rising curve with a large enough effect; inconclusive = small, poorly fitted or top-dose-only effect; inactive = no such curve, though single readings can be large or run the other way;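 note: % of control where 0% means no effect; miR-21 action dims this reporter so a rising signal means less miR-21 action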
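HeLa miR-21-FLuc reporter line, endogenous miR-21; 2000 cells/well in DMEM/10% FBS; compound titration up to ~40uM final, 48 h, 37 degree Celsius; luciferase detection reagent, 15 min lysis, CCD luminescence.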
Anesthetic bind: candidate novel general anesthetic via apoferritin binding; P02791; apoferritin/1-aminoanthracene competitive binding, fluorescence; Potency, µM (doses to about 77.5 µM), for inactives: at the highest dose activity change, negative = displacement, usual class: inhibitors; 0.074% of 350,000 active; further: potency means the concentration at half of the fitted maximal effect; on the % scale 0 is the no-effect control and ±100 the full control effect; nearly all actives have a fitted effect of over 20% in size
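Horse-spleen apoferritin (10 uM) was mixed with 50% saturated 1-aminoanthracene in PBS, exposed to compounds for 10 min at room temperature, and read for fluorescence (ex 380 nm, em 535 nm). Competitive displacement was fitted with a four-parameter Hill equation.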
rTrxR1 inhibitor: rat TrxR1 inhibition; recombinant rTrxR1, NADPH fluorescence consumption, selenite substrate; Potency, µM (highest dose often 114 µM), for the others: at the highest dose activity change, negative = inhibition, hits mostly inhibitors; 1% of 390,000 active; AID 588453; further: potency means the concentration at half of the fitted maximal effect; on the % scale 0 is the no-effect control and ±100 the full control effect; nearly all actives have a fitted effect of over 65% in size
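Rat TrxR1 (90 nM in the dispensed reagent) was pre-reduced with 400 uM NADPH for 5 min at room temperature, then incubated with compound for 15 min. After 400 uM selenite was added, NADPH fluorescence (Ex 340/Em 450 nm) was followed for 8 min.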
Numbers without * were called inactive; [ ] = dose if it differs, or a comment. Unless noted, the call rests on the fitted dose curve; in most records, active means well fitted curve in the direction sought with a large enough effect; inconclusive means small, poorly fitted or top-dose-only effect, or another doubt; inactive means no such curve, though single readings can be large; an effect the other way counts as inactive or inconclusive.

The chains behind the UniProt entries cited, without tags or fusion partners.
ATP-dependent Clp protease proteolytic subunit (Bacillus subtilis (strain 168)), P80244, UniProt P80244, whole entry, looked up: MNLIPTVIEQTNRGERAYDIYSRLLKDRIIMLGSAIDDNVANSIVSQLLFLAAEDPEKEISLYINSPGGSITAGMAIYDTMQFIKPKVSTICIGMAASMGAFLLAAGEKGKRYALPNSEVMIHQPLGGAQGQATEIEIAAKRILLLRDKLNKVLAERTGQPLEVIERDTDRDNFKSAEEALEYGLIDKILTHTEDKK

Cc1oc(-c2ccc(Cl)cc2)nc1CS(=O)CC(=O)NC1CCCC1 (configuration not stated) was read as ClpP mod -12%, TrxR1 substrate -5%, miR-21 reporter 1%, Anesthetic bind -14% and rTrxR1 inhibitor 45µM*.
Cc1oc(-c2ccc(Cl)cc2)nc1CS(=O)CC(=O)NC1CCCCC1 (configuration not stated) was read as ClpP mod -2%, TrxR1 substrate 15%, miR-21 reporter -10%, Anesthetic bind -18% and rTrxR1 inhibitor 25µM*.
Screening CC(=O)c1cccc(NC(=O)Cn2nc(C)n3cccc3c2=O)c1 returned ClpP mod -3%, TrxR1 substrate 2%, miR-21 reporter -8%, Anesthetic bind 54% and rTrxR1 inhibitor 29%.
COC(=O)c1sccc1S(=O)(=O)N(CC(=O)NCc1ccccc1)c1ccc(C)cc1 was read as ClpP mod -1%, TrxR1 substrate 4%[57.1 µM], miR-21 reporter 2%, Anesthetic bind -2% and rTrxR1 inhibitor 15%[57.1 µM].
CC(C)(C)n1ncc2c(=O)n(Cc3ccc(F)cc3Cl)cnc21 was read as TrxR1 substrate 1% and rTrxR1 inhibitor 2%.
Screening CCc1cccc(NC(=O)CSc2n[nH]c(-c3ccccc3Cl)n2)c1 returned ClpP mod -2%, TrxR1 substrate -4%[57.1 µM], miR-21 reporter 29%, Anesthetic bind -5% and rTrxR1 inhibitor 17%[57.1 µM].
`Cc1ccccc1-c1nc(CS(=O)CC(=O)NC2CCCC2)c(C)o1` (configuration not stated) gave ClpP mod -2%, TrxR1 substrate 3%, miR-21 reporter -2%, Anesthetic bind -14% and rTrxR1 inhibitor 26%.
Cc1oc(-c2ccccc2F)nc1CS(=O)CC(=O)NC1CCCC1 (configuration not stated) was read as ClpP mod -7%, TrxR1 substrate 9%, miR-21 reporter 0%, Anesthetic bind -11% and rTrxR1 inhibitor 28µM*.
`CN(c1ccc(C(=O)NCCSCc2ccc(Cl)cc2)cc1)S(=O)(=O)c1ccccc1` gave ClpP mod 28µM*, TrxR1 substrate -6%, miR-21 reporter 4%, Anesthetic bind 112% and rTrxR1 inhibitor -3%.
CC(=O)Nc1ccc(N(C(=O)c2cnccn2)C(C(=O)NC2CCCCC2)c2ccc(O)cc2)cc1 (configuration not stated) was read as ClpP mod 0%, TrxR1 substrate 12%[57.1 µM], miR-21 reporter -23%, Anesthetic bind -19% and rTrxR1 inhibitor 7.1µM*.
Screening O=c1[nH]c(=O)n([C@H]2C[C@@H](O)[C@@H](CO)O2)cc1C=CBr returned TrxR1 substrate -2%[57.1 µM] and rTrxR1 inhibitor -6%[57.1 µM].
O=C1C(=C(I)I)c2ccccc2-c2ccccc21 was read as ClpP mod -7%, TrxR1 substrate -29%[57.1 µM] and rTrxR1 inhibitor 0.89µM*.
For CC1(C)CC(=O)c2cc(C(=O)O)c(=O)n(-c3ccccc3)c2C1 the results were ClpP mod -5%, TrxR1 substrate -8%, miR-21 reporter 0%, Anesthetic bind -10% and rTrxR1 inhibitor 0%.
Screening CCOC(=O)c1cc2c(n(-c3ccccc3)c1=O)CC(C)(C)CC2=O returned ClpP mod 13µM*, TrxR1 substrate 20%, miR-21 reporter -3%, Anesthetic bind 7% and rTrxR1 inhibitor 2%.
For O=C(NCCO)c1ccc2[nH]c3ccccc3c2c1 the results were ClpP mod 25µM*, TrxR1 substrate 61%[57.1 µM], miR-21 reporter -33%, Anesthetic bind -2% and rTrxR1 inhibitor 22%[57.1 µM].
`COc1ccc(OCCC(=O)OCC(=O)NC(=O)NC2CCCCC2)cc1` gave ClpP mod 20µM*, TrxR1 substrate -10%, miR-21 reporter 1%, Anesthetic bind inconclusive and rTrxR1 inhibitor -7%.
COc1ccc(OCCC(=O)OCC(=O)NC2CCCCC2)cc1 was read as ClpP mod 1%, TrxR1 substrate -11% and rTrxR1 inhibitor 18%[57.1 µM].
For C[C@H](Cc1ccc(O)c(O)c1)[C@@H](C)Cc1ccc(O)c(O)c1 the results were ClpP mod inconclusive, TrxR1 substrate 8%[57.1 µM] and rTrxR1 inhibitor 13µM*.

Sorted by count of non-hydrogen atoms (descending): some entries from above.
COC(=O)c1sccc1S(=O)(=O)N(CC(=O)NCc1ccccc1)c1ccc(C)cc1 was read as ClpP mod -1%, TrxR1 substrate 4%[57.1 µM], miR-21 reporter 2%, Anesthetic bind -2% and rTrxR1 inhibitor 15%[57.1 µM].
Cc1oc(-c2ccc(Cl)cc2)nc1CS(=O)CC(=O)NC1CCCCC1 (configuration not stated) was read as ClpP mod -2%, TrxR1 substrate 15%, miR-21 reporter -10%, Anesthetic bind -18% and rTrxR1 inhibitor 25µM*.
Cc1oc(-c2ccc(Cl)cc2)nc1CS(=O)CC(=O)NC1CCCC1 (configuration not stated) was read as ClpP mod -12%, TrxR1 substrate -5%, miR-21 reporter 1%, Anesthetic bind -14% and rTrxR1 inhibitor 45µM*.
